Drawing on patent US11773062B2, “Deuterated compounds” (priority 2021, dated 2023), this text covers Half-life for one compound.

This series is described as follows: Human liver mitochondrial fraction intrinsic clearance of SPL026, SPL028i, SPL028iii, SPL028viii. It counts as in vitro ADME. To be noted: 0.5 mg/mL human liver mitochondrial fraction (Table 10). The source says: Human Liver Mitochondrial (HLMt) fractions contain high quantities of MAO enzymes and therefore, provide a useful tool to measure the clearance of MAO substrates.

The compound `[2H]C([2H])([2H])N(C([2H])([2H])[2H])C([2H])([2H])Cc1c[nH]c2ccccc12` [SPL028viii, α,α,bis-deuterio-N,N-hexadeuterio-dimethyltryptamine] registered a Half-life of 2.128 h.
